In EP4603105A1, “PHARMACEUTICAL COMPOSITION CONTAINING CYCLIC COMPOUND HAVING SELECTIVE KRAS INHIBITORY EFFECT AGAINST HRAS AND NRAS” (CHUGAI SEIYAKU KABUSHIKI KAISHA, priority 2022, dated 2024):
Like-named read-outs stand apart in the source and are kept apart here. Values belong to the molecule of their own block, whether it stands above or below them.

Experiments:
[1] = biological target: GDP-bound KRAS wild-type protein (Homo sapiens, UniProt P01116); test: Binding to KRAS by surface plasmon resonance (SPR), dissociation constant KD
Description: (§1) Surface plasmon resonance was used to analyze the binding affinity of compounds for KRAS, NRAS, and HRAS. The apparatus used was Biacore 8K, 8K+, or T200 (GE Healthcare), and the running buffer used was HBS (10 mM HEPES-NaOH, 150 mM NaCl, pH 7.4) containing 1 mM DTT, 10 mM MgCl2, 0.01% Tween 20, 10 µM GDP, and 4% DMSO.
(§2) Biotinylated Avi-tag fusion KRAS, NRAS, and HRAS proteins were expressed in E. coli BL21 (DE3) strains, and after cells were homogenized, they were purified using Streptavidin Mutein Matrix and Superdex 75. After purification, GDP-loaded KRAS, NRAS, and HRAS proteins were immobilized on the surface of Sensor Chip CAP (Cytiva) coated with Biotin CAPture Reagent in an immobilization amount of about 100 to 300 RU. Binding of each compound was evaluated by the Single Cycle Kinetics method, and a running buffer or a compound solution was added to the RAS protein non-immobilized surface and the immobilized surface to obtain a binding response. The flow rate was set to 100 µL/min, and in the compound-adding cycle, compound solutions having different concentrations were intermittently added for 75 seconds each, starting from a low concentration. […] In the blank cycle, a running buffer was intermittently added and not the compound solution. The Biotin CAPture Reagent and RAS proteins were immobilized for each cycle, and at the end of each cycle, the sensor chip was regenerated by the regeneration solution appended to the Biotin CAPture Kit (Cytiva). Measurement was carried out at 30°C.
(§3) The resulting sensorgram was subjected to curve fitting based on a 1:1 binding model on Biacore Insight Evaluation Software or T200 Evaluation Software, and thereby the dissociation constant KD of each compound with respect to KRAS, NRAS, and HRAS was determined. […] Blank indicates a compound from which the KD value with respect to NRAS or HRAS was not obtained.

[2] = biological target: GDP-bound NRAS wild-type protein (Homo sapiens, UniProt P01111); test: Binding to NRAS by surface plasmon resonance (SPR), KD and KD ratio to KRAS
Description: as §1, §2, §3

HRAS wild-type protein = HRAS wild-type protein (Homo sapiens, UniProt P01112); test: Binding to HRAS by surface plasmon resonance (SPR), KD and KD ratio to KRAS
Description: as §1, §2, §3

[3] = system: human lung cancer strain NCI-H441; type: cell-based; conditions: NCI-H441 cells, CellTiter-Glo, read-out: NCl-H441 IC50
Description: A test compound was dispensed into a U-bottom 384-well plate as 40 nL serially diluted dimethyl sulfoxide solutions using a liquid handler Echo (LABCYTE). […] This cell suspension was dispensed in an amount of 40 µL per well into a plate containing the test compound, and cultured at 37°C in a 5% carbon dioxide gas incubator. Four days later, 20 µL of CellTiter-Glo (registered trademark) (Promega) was added to each well and […] was measured. […]

[4] = system: human lung cancer strain NCI-H441; test: NCI-H441 cell proliferation inhibitory activity (CellTiter-Glo, 4 days); type: cell-based; conditions: NCI-H441 cells, read-out: NCl-H441 IC50
Description: A test compound was dispensed into a U-bottom 384-well plate as 40 nL serially diluted dimethyl sulfoxide solutions using a liquid handler Echo (LABCYTE). As for human lung cancer strain NCI-H441 (ATCC), a cell suspension was prepared so as to have 250 cells/40 µL in an RPMI-1640 medium (Sigma) supplemented with 10% fetal bovine serum (Sigma), a 2.5 g/L D-(+)-glucose solution, 10 mmol/L HEPES, and 1 mmol/L sodium pyruvate. This cell suspension was dispensed in an amount of 40 µL per well into a plate containing the test compound, and cultured at 37°C in a 5% carbon dioxide gas incubator. Four days later, 20 µL of CellTiter-Glo (registered trademark) (Promega) was added to each well and […] was measured. […]

[5] = ratio of KD for GDP-bound NRAS wild-type protein to KD for KRAS
[6] = ratio of KD for HRAS wild-type protein to KD for KRAS
[7] = Single Cycle Kinetics, 1:1 binding model

SMILES: CCO[C@@H]1C[C@H]2C(=O)NC3(CCC3)C(=O)N(C)[C@@H](C3CCCC3)C(=O)N(C)[C@H](C(=O)N(C)C)CC(=O)N(C)[C@@H](CC(C)C)C(=O)N[C@@H]([C@@H](C)CC)C(=O)N(C)CC(=O)N(C)[C@H]3CC(C)=C(C)CN(C3=O)[C@@H](Cc3ccc(C(F)(F)F)cc3)C(=O)N(C)CC(=O)N[C@@H](CCc3cc(F)c(C(F)(F)F)c(F)c3)C(=O)N2C1 [PP1046]
- Kd [1]: 0.38 nM
- NRAS /KRAS [2, 5]: C (A compound having a KD ratio of 0.1 or more and less than 3 is denoted as C)
- HRAS /KRAS (HRAS wild-type protein; [6]): C (A compound having a KD ratio of 0.1 or more and less than 3 is denoted as C)
- IC50 ([3]; four days): 109 nM

- Kd [1, 7]: 0.14 nM
SMILES: CCO[C@@H]1C[C@H]2C(=O)NC3(COC3)C(=O)N(C)[C@@H](C3CCCC3)C(=O)N(C)[C@H](C(=O)N(C)C)CC(=O)N(C)[C@@H](CC)C(=O)N[C@@H]([C@@H](C)CC)C(=O)N(C)CC(=O)N(C)[C@H]3C/C=C\CCN(C3=O)[C@@H](Cc3ccc(C(F)(F)F)cc3)C(=O)N(C)CC(=O)N[C@@H](CCc3cc(F)c(C(F)(F)F)c(F)c3)C(=O)N2C1 [PP1278]

- Kd [1, 7]: 0.14 nM
SMILES: CCO[C@@H]1C[C@H]2C(=O)NC3(CCC3)C(=O)N(C)[C@@H](C3CCCC3)C(=O)N(C)[C@H](C(=O)N3CCOCC3)CC(=O)N(C)[C@@H](CC)C(=O)N[C@@H]([C@@H](C)CC)C(=O)N(C)CC(=O)N(C)[C@H]3C/C=C\CCN(C3=O)[C@@H](Cc3ccc(C(F)(F)F)cc3)C(=O)N(C)CC(=O)N[C@@H](CCc3ccc(C(F)(F)F)c(Cl)c3)C(=O)N2C1 [PP1281]

- Kd [1, 7]: 0.14 nM
SMILES: CCC[C@H]1C(=O)N[C@@H]([C@@H](C)CC)C(=O)N(C)CC(=O)N(C)[C@H]2C/C=C\CCN(C2=O)[C@@H](Cc2ccc(C(F)(F)F)cc2)C(=O)N(C)CC(=O)N[C@@H](CCc2cc(F)c(C(F)(F)F)c(F)c2)C(=O)N2C[C@H](OCC)C[C@H]2C(=O)NC2(CCC2)C(=O)N(C)[C@@H](C2CCCC2)C(=O)N(C)[C@H](C(=O)N2CCCC2)CC(=O)N1C [PP1299]

SMILES: CCO[C@@H]1C[C@H]2C(=O)NC3(CCC3)C(=O)N(C)[C@@H](C3CCCC3)C(=O)N(C)[C@H](C(=O)N(CC)CC)CC(=O)N(C)[C@@H](CC3CC3)C(=O)N[C@@H]([C@@H](C)CC)C(=O)N(C)CC(=O)N(C)[C@H]3C/C=C\CCN(C3=O)[C@@H](Cc3ccc(C(F)(F)F)cc3)C(=O)N(C)CC(=O)N[C@@H](CCc3cc(F)c(C(F)(F)F)c(F)c3)C(=O)N2C1 [PP1307]
- NRAS /KRAS ([2]; ratio of KD with respect to GDP-bound NRAS wild-type protein to KD with respect to KRAS): A (a compound having 10 or more and less than 20 is denoted as A)
- HRAS /KRAS (HRAS wild-type protein; ratio of KD with respect to HRAS wild-type protein to KD with respect to KRAS): A (a compound having 10 or more and less than 20 is denoted as A)

- Kd [1, 7]: 0.14 nM
SMILES: CCCC[C@H]1C(=O)N[C@@H]([C@@H](C)CC)C(=O)N(C)CC(=O)N(C)[C@H]2C/C=C\CCN(C2=O)[C@@H](Cc2ccc(C(F)(F)F)cc2)C(=O)N(C)CC(=O)N[C@@H](CCc2cc(F)c(C(F)(F)F)c(F)c2)C(=O)N2C[C@H](OCC)C[C@H]2C(=O)NC2(CCC2)C(=O)N(C)[C@@H](C2CCCC2)C(=O)N(C)[C@H](C(=O)N2CCCC2)CC(=O)N1C [PP1396]

- Kd [1, 7]: 0.14 nM
SMILES: CCO[C@@H]1C[C@H]2C(=O)NC3(CCC3)C(=O)N(C)[C@@H](C3CCCC3)C(=O)N(C)[C@H](C(=O)N3CCCC3)CC(=O)N(C)[C@@H](CC3CCC3)C(=O)N[C@@H]([C@@H](C)CC)C(=O)N(C)CC(=O)N(C)[C@H]3C/C=C\CCN(C3=O)[C@@H](Cc3ccc(C(F)(F)F)cc3)C(=O)N(C)CC(=O)N[C@@H](CCc3cc(F)c(C(F)(F)F)c(F)c3)C(=O)N2C1 [PP1423]

- Kd [1, 7]: 0.14 nM
SMILES: CCC[C@H]1C(=O)N[C@@H]([C@@H](C)CC)C(=O)N(C)CC(=O)N(C)[C@H]2C/C=C\CCN(C2=O)[C@@H](CC2CCC(F)(F)CC2)C(=O)N(C)CC(=O)N[C@@H](CCc2cc(F)c(C(F)(F)F)c(F)c2)C(=O)N2C[C@H](OCC)C[C@H]2C(=O)NC2(CCC2)C(=O)N(C)[C@@H](C2CCCC2)C(=O)N(C)[C@H](C(=O)N(C)C)CC(=O)N1C [PP1450]

- Kd [1, 7]: 0.14 nM
SMILES: CC[C@H](C)[C@@H]1NC(=O)[C@H](CC)N(C)C(=O)C[C@@H](C(=O)N(C)C)N(C)C(=O)[C@H](C2CCCC2)N(C)C(=O)C2(CCC2)NC(=O)[C@@H]2C[C@@H](C(F)(F)F)CN2C(=O)[C@H](CCc2cc(F)c(C(F)(F)F)c(F)c2)NC(=O)CN(C)C(=O)[C@H](CC2CCC(F)(F)CC2)N2CC/C=C\C[C@@H](C2=O)N(C)C(=O)CN(C)C1=O [PP1451]

- Kd [1, 7]: 0.14 nM
SMILES: CCO[C@@H]1C[C@H]2C(=O)NC3(CCC3)C(=O)N(C)[C@@H](C3CCCC3)C(=O)N(C)[C@H](C(=O)N(C)C)CC(=O)N(C)[C@@H](CC)C(=O)N[C@@H]([C@@H](C)CC)C(=O)N(C)CC(=O)N(C)[C@H]3C/C=C\CCN(C3=O)[C@@H](CC3CCCCC3)C(=O)N(C)CC(=O)N[C@@H](CCc3cc(F)c(C(F)(F)F)c(F)c3)C(=O)N2C1 [PP1466]

- Kd [1, 7]: 0.14 nM
SMILES: CCO[C@@H]1C[C@H]2C(=O)NC3(CCC3)C(=O)N(C)[C@@H](C3CCCC3)C(=O)N(C)[C@H](C(=O)N(C)C)CC(=O)N(C)[C@@H](CC3CCCC3)C(=O)N[C@@H]([C@@H](C)CC)C(=O)N(C)CC(=O)N(C)[C@H]3C/C=C\CCN(C3=O)[C@@H](CC3CCCCC3)C(=O)N(C)CC(=O)N[C@@H](CCc3cc(F)c(C(F)(F)F)c(F)c3)C(=O)N2C1 [PP1472]

- IC50 [4]: 12.9 nM
SMILES: CC[C@H](C)[C@@H]1NC(=O)[C@H](COC)N(C)C(=O)C[C@@H](C(=O)N(C)CC)N(C)C(=O)[C@H](C2CCCC2)N(C)C(=O)C2(CC(C)(C)C2)NC(=O)[C@@H]2C[C@H](C)CN2C(=O)[C@H](CCc2ccc(C(F)(F)F)c(OC)c2)NC(=O)CN(C)C(=O)[C@H](Cc2ccc(C)cc2)N2CC/C=C\C[C@@H](C2=O)N(C)C(=O)CN(C)C1=O [PP2504]

SMILES: CCC[C@H]1C(=O)N[C@@H]([C@@H](C)CC)C(=O)N(C)CC(=O)N(C)[C@H]2C/C=C\CCN(C2=O)[C@@H](Cc2ccc(C)cc2)C(=O)N(C)CC(=O)N[C@@H](CCc2cc(F)c(C(F)(F)F)c(F)c2)C(=O)N2CC3(CC3)C[C@H]2C(=O)NC2(CC(C)(C)C2)C(=O)N(C)[C@@H](CC(C)C)C(=O)N(C)[C@H](C(=O)N(C)C)CC(=O)N1C [PP3004]
- Kd [1]: 0.41 nM
- NRAS /KRAS [2, 5]: A (a compound having 10 or more and less than 20 is denoted as A)
- HRAS /KRAS (HRAS wild-type protein; [6]): A (a compound having 10 or more and less than 20 is denoted as A)
- IC50 ([3]; 4 days): 19.2 nM
